Results: ChEMBL document CHEMBL2331485, “Pyrimidoaminotropanes as potent, selective, and efficacious small molecule kinase inhibitors of the mammalian target of rapamycin (mTOR)” (J Med Chem, 2013)

What was measured:
[1] = species: Homo sapiens; experiment: Selectivity ratio of Ki for P13Kdelta (unknown origin) to Ki for human recombinant mTOR
[2] = species: Homo sapiens; experiment: Selectivity ratio of Ki for P13Kalpha (unknown origin) to Ki for human recombinant mTOR

Which results are given for `CCNC(=O)Nc1ccc(-c2nc3c(c(N4CCOC[C@@H]4C)n2)C[C@@H]2CC[C@H]3N2C2COC2)cc1`?
Ratio Ki [1]: 4450; Ratio Ki [2]: 1450
